# Reference: patent US20040063694A1, “Compound useful for the treatment of CNS disorders” (priority 2002, published 2004)
# Conditions: dog, in vivo
# Protocol: In addition to total cholesterol values other parameters were measured including blood glucose levels at pretest, week 13 and week 26 of the study.
smiles,measurement,value
"Cc1cc2c(s1)Nc1ccccc1N=C2N1CCN(C)CC1 [olanzapine, 2-methyl-10-(4-methyl-1-piperazinyl)-4H-thieno[2,3-b][1,5]benzodiazepine, reference compound]","blood glucose level, pretest",84.1 mg/dL
